Among the data in US20210393810A1, “DIHYDRAZONE COMPOUNDS HAVING HIGH AFFINITY TO A BETA PROTEIN AND TAU PROTEIN, DERIVATIVES THEREOF AND USE THEREOF” (HTA CO., LTD., priority 2019, published 2021) are Ki values, retold here.

Amino acid sequences for entries named in this document (tags omitted). Residues count along the entry.
UniProt P05067, 672-713 limits assumed: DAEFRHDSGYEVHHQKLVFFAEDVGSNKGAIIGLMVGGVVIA

The target of the test is Aβ1-42 aggregates (Homo sapiens, UniProt P05067). In words: Competitive binding experiment with [125I]IMPY. Particulars: competition with [125I]IMPY, Aβ1-42, 37° C., 3 hours. How it is done:
(1) formulating a 0.1% BSA solution with pH=7.4;
(2) preparing a radioligand [125I] IMPY according to the known methods; formulating [125I] IMPY into a solution of 60000-100000 cpm/100 μL for later use;
(3) formulating the compound to be tested into a 10^−5 to 10^−11 mol/L serially diluted ethanol solution;
(4) preparing Aβ1-42 proteins according to the known methods, and diluting it into an aqueous solution of about 30 nM;
(5) soaking a glass fiber filter membrane in PBS solution containing 0.1% polyethyleneimine for 30 minutes;
(6) adding 100 μL of the test compound solutions with different concentrations and 100 μL of [125I] IMPY solution, 700 μL of BSA solution and 100 μL of Aβ1-42 solution into a 12 mm×75 mm borosilicate glass tube, and vortexing;
(7) incubating with shaking in a constant temperature water bath at 37° C. for 3 hours;
(8) collecting the reaction solution by a multi-head cell collector, and rinsing the reaction solution for three times with 10% ethanol solution;
(9) measuring and counting with a gamma counter;
(10) analyzing and processing data using GraphPrad Prism 5.01 to obtain an affinity constant Ki.
Activity between some compounds and Aβ1-42 aggregates was quantitatively determined by the method.

`CN(C)c1ccc(/C=N/N=C/c2ccc(N(C)C)nc2)cn1`: the Ki (commonly a dissociation constant, usually derived from enzyme kinetics or from competition with a known ligand) is 6.46 nM.
